Properties, as collected for the OPERA models

Source: data files of OPERA 2.9 (Mansouri et al.), github.com/kmansouri/OPERA.

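OPERA's authors assembled the values from existing databases and did not measure them anew. One number stands for a compound and property, with no spread given. Conditions of the individual experiments are not part of the data. A value may pool stereoisomers or salt forms, and the file does not say which form was measured. Some upstream entries may be estimates or bounds without being marked so.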

The melting point is given in degrees Celsius.
The boiling point refers to atmospheric pressure (760 mmHg), by the definition of the set.
The octanol-water partition coefficient is given as log10; larger values mean a more lipophilic compound.
Water solubility is log10 of mol/L, nominally at 25 °C; higher is more soluble.
Vapor pressure is log10 of mmHg; the set covers 15 to 30 °C, mostly 20 to 25 °C.
The Henry's law constant is on a log10 scale in atm·m3/mol (set defined at 25 °C); higher favours air over water.
The unbound fraction in human plasma runs from 0 (all bound) to 1 (all free).
Clint is human hepatic intrinsic clearance in µL/min per million cells; 0 means that no clearance was seen.
"n/a" marks a cell with nothing listed here.

The entry for O=S1(=O)OCCO1 lists logP -0.04 and log VP -2.03 (log10 mmHg). The entry for C[Si](Cn1cncn1)(c1ccc(F)cc1)c1ccc(F)cc1 lists log Henry constant -8.574 (log10 atm·m3/mol) and plasma fu 0.02925 and intrinsic clearance 6.96 µL/min/10^6 cells. c1ccc2c(c1)Sc1ccccc1N2CC1CN2CCC1CC2 (stereo not drawn) has logP 4.7 and log solubility -4.905 (log10 mol/L) and plasma fu 0.1. CN1CCC(Cl)CC1 is reported with logP 1.318 and log solubility -1.94 (log10 mol/L). NP(N)(=O)Nc1ccccc1[N+](=O)[O-] is reported with logP 0.51 and log solubility -2.19 (log10 mol/L) and log VP -7.316 (log10 mmHg). The entry for Clc1ccc(C2(Cn3cncn3)OCCO2)c(Cl)c1 lists log VP -7.187 (log10 mmHg) and log Henry constant -10.07 (log10 atm·m3/mol). COc1ccc(OC)c(C(O)C(C)N)c1 (stereo not drawn) has logP 0.8 and plasma fu 0.85. C[C@@H]1CN([C@H]2CC[C@](C#N)(c3ccc(F)cc3)CC2)CC[C@]1(C(=O)O)c1ccccc1 has logP 5 and log solubility -5.083 (log10 mol/L) and plasma fu 0.45.

The entry for S=c1[nH]c2ccccc2[nH]1 lists plasma fu 0.4 and intrinsic clearance 0 µL/min/10^6 cells. CCOC(=O)COc1cc(-c2nn(C)c(OC(F)F)c2Cl)c(F)cc1Cl is reported with log solubility -6.699 (log10 mol/L) and log VP -10.21 (log10 mmHg) and log Henry constant -9.663 (log10 atm·m3/mol) and plasma fu 0.435 and intrinsic clearance 71.6 µL/min/10^6 cells. For CCCCCCCCC1(CC)C(=O)NC(=O)NC1=O the data give MP 113 °C and log solubility -3.943 (log10 mol/L). For CC(C)(C)C(=O)O[C@H]1CC[C@]2(C)[C@H]3CC[C@]4(C)C(=O)[C@H]5C[C@H]5[C@H]4[C@@H]3[C@H](Br)[C@H]3O[C@]32C1 the data give logP 5.32 and log solubility -5.505 (log10 mol/L). Listed for Nc1c(Cl)c(F)nc(OCC(=O)O)c1Cl: logP 2.2 and plasma fu 0.09166. The entry for O=C(O)C1N=C(c2ccccc2)c2cc(Cl)ccc2NC1=O (stereo not drawn) lists logP 3 and log solubility -4.103 (log10 mol/L) and plasma fu 0.09. The entry for CC(C)CC(C)OP(=S)([S-])OC(C)CC(C)C.CC(C)CC(C)OP(=S)([S-])OC(C)CC(C)C.[Zn+2] (stereo not drawn) lists MP -12 °C and logP 2.21 and log solubility -3.56 (log10 mol/L) and log VP -4.084 (log10 mmHg). The entry for CCN(C(=O)n1nnn(-c2ccccc2Cl)c1=O)C1CCCCC1 lists logP 3.6 and log Henry constant -10.16 (log10 atm·m3/mol).

Listed for CC1CCC2CC1(OO)C2(C)C (stereo not drawn): logP 2.85 and log solubility -3.027 (log10 mol/L). C[C@]12CC[C@H](O)CC1=C[C@@H](O)[C@H]1[C@@H]3[C@@H](O)CC(=O)[C@@]3(C)CC[C@@H]12 is reported with logP 0.97 and log solubility -3.033 (log10 mol/L). C=C(C#N)C(=O)OC(C)CCCCCC (stereo not drawn) is reported with boiling point 257 °C and log VP -1.557 (log10 mmHg). The entry for CNC(=O)Oc1ccc2c(c1)[C@]1(C)CCN(C)[C@@H]1N2C lists plasma fu 0.699 and intrinsic clearance 1.64 µL/min/10^6 cells. Cc1ccc(-c2c(Cl)nc(C#N)n2S(=O)(=O)N(C)C)cc1 is reported with logP 3.2 and log VP -7.001 (log10 mmHg). For [Na+].[O-][n+]1ccccc1[S-] the data give logP 0.003 and log VP -6.628 (log10 mmHg). CCOP(=S)(OCC)SC1OCCOC1SP(=S)(OCC)OCC (stereo not drawn) has logP 3 and log solubility -5.47 (log10 mol/L). Fc1ccc(Oc2ccnc3cc(Cl)cc(Cl)c23)cc1 has log Henry constant -6.502 (log10 atm·m3/mol) and intrinsic clearance 0 µL/min/10^6 cells.

The first 3 entries again:

| compound | MP (°C) | boiling point (°C) | logP | log solubility (log10 mol/L) | log VP (log10 mmHg) | log Henry constant (log10 atm·m3/mol) | plasma fu | intrinsic clearance (µL/min/10^6 cells) |
|---|---|---|---|---|---|---|---|---|
| O=S1(=O)OCCO1 | n/a | n/a | -0.04 | n/a | -2.03 | n/a | n/a | n/a |
| C[Si](Cn1cncn1)(c1ccc(F)cc1)c1ccc(F)cc1 | n/a | n/a | n/a | n/a | n/a | -8.574 | 0.02925 | 6.96 |
| c1ccc2c(c1)Sc1ccccc1N2CC1CN2CCC1CC2 (stereo not drawn) | n/a | n/a | 4.7 | -4.905 | n/a | n/a | 0.1 | n/a |